Chains of the proteins cited; added tags and fusions are not shown.
UniProt Q99685, whole entry: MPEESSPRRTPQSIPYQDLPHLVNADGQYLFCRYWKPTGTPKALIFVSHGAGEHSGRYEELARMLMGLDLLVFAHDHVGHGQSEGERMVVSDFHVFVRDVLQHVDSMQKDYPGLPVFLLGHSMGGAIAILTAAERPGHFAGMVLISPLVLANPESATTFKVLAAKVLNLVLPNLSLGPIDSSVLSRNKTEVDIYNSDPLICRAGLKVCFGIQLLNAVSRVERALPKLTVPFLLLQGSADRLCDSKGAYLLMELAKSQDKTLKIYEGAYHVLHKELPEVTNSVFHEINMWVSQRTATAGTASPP

In ChEMBL document CHEMBL4613273, “Discovery of Aryl Formyl Piperidine Derivatives as Potent, Reversible, and Selective Monoacylglycerol Lipase Inhibitors” (J Med Chem, 2020):

Molecular target: Monoglyceride lipase (Homo sapiens, UniProt Q99685)
Assay: Inhibition of human recombinant MAGL pre-incubated for 5 mins before MAGL substrate addition and further incubated for 10 mins

In the case of `O=C(Oc1ccc([N+](=O)[O-])cc1)N1CCN(Cc2cccc(Oc3ccccc3)c2)CC1`, the IC50 is reported as 204 nM.
